{"sequences": {"note": "By UniProt entry, the sequences of proteins in these tests, tags left out.", "UniProt P19327, whole entry": "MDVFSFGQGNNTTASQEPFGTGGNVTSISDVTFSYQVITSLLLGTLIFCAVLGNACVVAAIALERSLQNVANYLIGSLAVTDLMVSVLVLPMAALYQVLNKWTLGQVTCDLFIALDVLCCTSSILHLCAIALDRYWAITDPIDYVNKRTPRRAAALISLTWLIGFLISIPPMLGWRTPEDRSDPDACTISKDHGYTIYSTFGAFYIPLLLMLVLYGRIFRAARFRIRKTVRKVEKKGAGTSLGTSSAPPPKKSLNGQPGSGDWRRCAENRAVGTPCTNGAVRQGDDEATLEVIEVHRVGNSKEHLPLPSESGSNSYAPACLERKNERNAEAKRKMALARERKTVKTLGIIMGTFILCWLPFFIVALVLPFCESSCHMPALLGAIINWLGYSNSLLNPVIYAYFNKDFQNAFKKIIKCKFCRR"}, "source": "ChEMBL document CHEMBL1125620", "about": "“Synthesis and biological evaluation of a series of substituted N-alkoxyimides and -amides as potential atypical antipsychotic agents” (J Med Chem, 1991)", "molecular_target": "5-hydroxytryptamine receptor 1A (Rattus norvegicus, UniProt P19327)", "test": "Affinity for 5-hydroxytryptamine 1A receptor labeled with [3H]8-OH-DPAT radioligand in hippocampus tissue", "type": "tissue-based", "data": [{"smiles": "O=C1CC2(CCCC2)CC(=O)N1CCCCN1CCN(c2nsc3ccccc23)CC1", "note": "[TIOSPIRONE]", "values": [{"measurement": "IC50", "result": 18, "unit": "nM"}]}]}
